Data: US20230059009A1, “INHIBITORS OF LIN28 AND METHODS OF USE THEREOF” (The Regents of the University of California, priority 2019, published 2023)

Tested on: SW480
Experiment: Cell viability, CTG, SW480
Assay type: cell-based
Settings: SW480 (Colon), Cetuximab
Experimental: To measure cell viability, cell titer glow (CTG, Promega CellTiter-Glo 2.0 Assay) and MTT assays (SigmaAldrich, Cell Proliferation Kit I) were performed. Briefly, cells were serum starved overnight prior to seeding in 96-well plates. Following 24 h incubation, cells were treated with increasing concentrations of JGJ compounds for 96 hr. At assay read-out, CellTiter-Glo reagent was added and luminescence was measured after 10-minutes incubation at room temperature. For the MTT assay, MTT labeling reagent was added and incubated for 4 h. Subsequently, medium was removed and 50 μL DMSO was added to solubilize the crystals, and absorbance was measured at 570 nm. Cell viability was calculated as (Sample-Background)/(Control-Background). Current standard of care drugs, Enzalutamide, Palbociclib and Cetuximab were used as comparative controls.

For Cetuximab, the IC50 was 40 µg/mL.
